Assay results taken from patent US20260132129A1.

Amino acid sequences for entries named in this document (tags omitted).
UniProt P42336, whole entry H1047R: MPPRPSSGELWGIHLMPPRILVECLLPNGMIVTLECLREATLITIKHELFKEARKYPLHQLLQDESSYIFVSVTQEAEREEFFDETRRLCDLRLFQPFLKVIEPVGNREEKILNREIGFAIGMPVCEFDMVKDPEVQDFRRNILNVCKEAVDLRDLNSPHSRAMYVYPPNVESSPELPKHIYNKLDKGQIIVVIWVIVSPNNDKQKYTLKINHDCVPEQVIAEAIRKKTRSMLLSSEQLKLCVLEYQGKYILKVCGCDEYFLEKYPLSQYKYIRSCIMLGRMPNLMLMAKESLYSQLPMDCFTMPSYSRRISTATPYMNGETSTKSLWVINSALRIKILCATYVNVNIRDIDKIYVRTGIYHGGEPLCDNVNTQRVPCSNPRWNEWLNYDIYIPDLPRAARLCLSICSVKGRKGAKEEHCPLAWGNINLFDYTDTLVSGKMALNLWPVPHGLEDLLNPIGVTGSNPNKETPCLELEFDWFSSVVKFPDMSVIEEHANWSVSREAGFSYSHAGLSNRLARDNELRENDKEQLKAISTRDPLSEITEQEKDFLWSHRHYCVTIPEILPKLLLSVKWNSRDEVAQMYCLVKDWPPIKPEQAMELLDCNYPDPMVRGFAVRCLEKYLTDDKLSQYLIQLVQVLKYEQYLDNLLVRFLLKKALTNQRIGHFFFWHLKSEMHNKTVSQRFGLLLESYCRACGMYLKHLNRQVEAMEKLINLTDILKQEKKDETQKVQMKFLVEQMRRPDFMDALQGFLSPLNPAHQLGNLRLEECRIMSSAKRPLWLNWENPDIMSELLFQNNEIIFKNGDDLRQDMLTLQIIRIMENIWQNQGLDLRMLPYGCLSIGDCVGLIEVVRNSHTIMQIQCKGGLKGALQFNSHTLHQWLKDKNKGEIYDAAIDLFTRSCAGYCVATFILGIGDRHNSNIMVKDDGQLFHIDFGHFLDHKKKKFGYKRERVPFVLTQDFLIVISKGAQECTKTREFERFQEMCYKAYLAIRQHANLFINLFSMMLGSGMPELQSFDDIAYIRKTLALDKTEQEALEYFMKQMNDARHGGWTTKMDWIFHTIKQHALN
UniProt P27986, whole entry partner: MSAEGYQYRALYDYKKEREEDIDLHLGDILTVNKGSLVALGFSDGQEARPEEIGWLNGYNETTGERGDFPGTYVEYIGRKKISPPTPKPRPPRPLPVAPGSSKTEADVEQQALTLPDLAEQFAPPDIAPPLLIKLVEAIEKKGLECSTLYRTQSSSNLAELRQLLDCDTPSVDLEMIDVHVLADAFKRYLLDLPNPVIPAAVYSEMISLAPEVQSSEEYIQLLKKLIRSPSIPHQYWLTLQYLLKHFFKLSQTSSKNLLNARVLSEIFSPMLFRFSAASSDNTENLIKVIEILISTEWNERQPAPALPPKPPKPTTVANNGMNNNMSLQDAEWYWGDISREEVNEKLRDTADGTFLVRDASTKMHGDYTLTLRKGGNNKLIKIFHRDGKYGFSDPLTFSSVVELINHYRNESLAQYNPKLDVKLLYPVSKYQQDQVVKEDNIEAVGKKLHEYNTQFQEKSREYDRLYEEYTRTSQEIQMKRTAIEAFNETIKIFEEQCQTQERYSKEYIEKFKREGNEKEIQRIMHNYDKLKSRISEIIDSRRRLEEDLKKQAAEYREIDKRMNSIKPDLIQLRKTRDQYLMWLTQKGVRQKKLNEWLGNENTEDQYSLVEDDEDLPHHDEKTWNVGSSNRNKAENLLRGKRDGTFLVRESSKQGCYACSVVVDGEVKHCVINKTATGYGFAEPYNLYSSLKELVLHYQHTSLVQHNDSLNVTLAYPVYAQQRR

Target: PI3Kα H1047R (T47D cells) (Homo sapiens, UniProt P42336, H1047R)
Assay: PI3Kα cellular assay: pAKT HTRF in T47D cells after EGF stimulation
Type: cell-based
Settings: for IC50: read-out: T47D pAKT S473 HTRF IC50 (H1047R): Average IC50, T47D cells (PI3Kα H1047R), pAKT S473 HTRF
[1] = selectivity T47D (H1047R) over SKBR3 (WT), pAKT HTRF
[2] = selectivity of T47D (H1047R) over SKBR3 (WT) pAKT IC50
[3] = 1 hr compound, 20 ng/ml EGF 10 min

Row | SMILES | IC50 (EGF stimulation) [µM] | T47D pAKT S473 HTRF IC50 (H1047R): T47D (H1047R) selectivity over SKBR3 (WT) [1] | T47D pAKT S473 HTRF IC50 (H1047R): T47D (H1047R) selectivity over SKBR3 (WT) [2] | IC50 [3] [µM]
1 | Cc1cc([C@H](C)Nc2ccccc2C(=O)O)c2nc(-c3ccc(C(C)C)nc3)c(C)c(=O)n2c1 | 0.5 to 2 | – | – | –
2 | Cc1cc([C@@H](C)Oc2ccccc2C(=O)O)c2nc(C#Cc3ccccc3)c(C)c(=O)n2c1 | < 0.1 | A (A denotes >20-fold) | – | –
3 | Cc1cc([C@@H](C)Nc2ccccc2C(=O)O)c2nc(-c3ccc4c(c3)c(=O)[nH]n4C)cc(=O)n2c1 | > 2 | – | C (C denotes ≤5-fold) | –
4 | Cc1nn(C)c2ccc(-c3cc(=O)n4cc(Cl)cc(C(C)Nc5ccccc5C(=O)O)c4n3)cc12 (stereo not shown) | < 0.1 | – | A (A denotes >20-fold) | –
5 | Cc1cc(C(C)Nc2ccccc2C(=O)O)c2nc(N3CCC(CO)CC3)cc(=O)n2c1 (stereo not shown) | – | C (C denotes ≤5-fold) | – | > 2
6 | CONC(=O)c1ccc(-c2cc(=O)n3cc(C)cc(C(C)Nc4ccccc4C(=O)O)c3n2)cc1 (stereo not shown) | – | – | – | 0.5 to 2
7 | Cc1cc([C@H](C)Nc2ccccc2C2(O)COC2)c2nc(-c3cccc(F)c3)c(C)c(=O)n2c1 | > 2 | C (C denotes ≤5-fold) | – | –
8 | Cc1cc(C(C)Nc2ccccc2C(=O)O)c2nc(-c3ccc(CN4CCN(C(=O)C5CC5)CC4)c(F)c3)cc(=O)n2c1 (stereo not shown) | – | A (A denotes >20-fold) | – | 0.1 to 0.5
9 | Cc1cc([C@H](C)Nc2ccccc2C(=O)O)c2nc(N3CC4(COC4)C3)cc(=O)n2c1 | – | C (C denotes ≤5-fold) | – | > 2
10 | Cc1cc([C@H](C)Nc2ccccc2C(N)=O)c2nc(C3CCOCC3)c(C)c(=O)n2c1 | < 0.1 | A (A denotes >20-fold) | – | –
11 | Cc1cc([C@@H](C)Nc2ccccc2S(N)(=O)=O)c2nc(-c3ccc(F)c(C#N)c3)c(C)c(=O)n2c1 | 0.1 to 0.5 | – | A (A denotes >20-fold) | –
12 | Cc1cc(C(C)Nc2ccccc2C(=O)O)c2nc(-c3ccc(C(C)(F)F)cc3)cc(=O)n2c1 (stereo not shown) | – | A (A denotes >20-fold) | – | 0.1 to 0.5
13 | Cc1cc([C@H](C)Nc2ccccc2C(=O)O)c2nc(-c3ccnc(C4CC4)n3)c(C)c(=O)n2c1 | < 0.1 | C (C denotes ≤5-fold) | – | –
14 | Cc1cc([C@H](C)Nc2cnccc2C(=O)O)c2nc(N3CCOCC3)cc(=O)n2c1 | – | C (C denotes ≤5-fold) | – | > 2
15 | CC(=O)N1CCN(Cc2ccc(-c3nc4c(C(C)Nc5ccccc5C(=O)O)cc(C)cn4c(=O)c3C)cc2F)CC1 (stereo not shown) | 0.1 to 0.5 | A (A denotes >20-fold) | – | –
16 | Cc1cc([C@H](C)Nc2ccccc2-c2cc(O)no2)c2nc(-c3cccc(F)c3)c(C)c(=O)n2c1 (single isomer, unassigned) | 0.1 to 0.5 | A (A denotes >20-fold) | – | –
17 | Cc1cc([C@H](C)Nc2ccccc2C(=O)O)c2nc(N3CC4(CCOC4)C3)cc(=O)n2c1 | – | – | – | 0.5 to 2
18 | Cc1cc(C(C)Nc2ccccc2S(N)(=O)=O)c2nc(-c3ccc(C4CC4)nc3)c(C3CC3)c(=O)n2c1 (stereo not shown) | 0.1 to 0.5 | A (A denotes >20-fold) | – | –
19 | Cc1cc(C(C)Nc2ccccc2C(=O)O)c2nc(N3CC4(CCOC4)C3)cc(=O)n2c1 (stereo not shown) | – | – | – | 0.5 to 2
20 | Cc1cc([C@H](C)Nc2ccccc2S(N)(=O)=O)c2nc(C3CCOCC3)c(C)c(=O)n2c1 | < 0.1 | A (A denotes >20-fold) | – | –
21 | Cc1cc([C@@H](C)Nc2ccccc2C(=O)O)c2nc(-n3cc(C(N)=O)c4ccccc43)cc(=O)n2c1 | – | – | – | 0.5 to 2
22 | Cc1cc([C@H](C)Nc2ccccc2C(=O)O)c2nc(-c3ccc4c(c3)c(C)nn4C3CC3)cc(=O)n2c1 | > 2 | – | C (C denotes ≤5-fold) | –
23 | Cc1cc(C(C)Nc2ccccc2S(N)(=O)=O)c2nc(-c3cccc(F)c3)c(C)c(=O)n2c1 (stereo not shown) [Compound 1248] | 0.1 to 0.5 | A (A denotes >20-fold) | – | –

Row | SMILES | IC50 (EGF stimulation) [µM] | T47D pAKT S473 HTRF IC50 (H1047R): T47D (H1047R) selectivity over SKBR3 (WT) [1] | T47D pAKT S473 HTRF IC50 (H1047R): T47D (H1047R) selectivity over SKBR3 (WT) [2] | IC50 [3] [µM]
24 | Cc1cc([C@@H](C)Nc2ccccc2C(=O)O)c2nc(N3CCN(c4ccncc4)CC3)cc(=O)n2c1 (single isomer, unassigned) | – | C (C denotes ≤5-fold) | – | > 2
25 | Cc1cc([C@@H](C)Nc2ccc(C(F)(F)F)nc2C(=O)O)c2nc(-c3cccc(F)c3)c(C)c(=O)n2c1 | > 2 | C (C denotes ≤5-fold) | – | –
26 | Cc1cc([C@@H](C)Nc2ccccc2C(=O)O)c2nc(N3CC4(COC4)C3)cc(=O)n2c1 | – | C (C denotes ≤5-fold) | – | > 2
27 | Cc1cc([C@H](C)Nc2ccccc2C(=O)O)c2nc(-c3cccc(C#N)c3)c(C)c(=O)n2c1 (single isomer, unassigned) | 0.1 to 0.5 | – | A (A denotes >20-fold) | –
28 | Cc1cc([C@@H](C)Nc2ccccc2C(=O)O)c2nc(N3Cc4ccccc4C3)c(C#N)c(=O)n2c1 | < 0.1 | A (A denotes >20-fold) | – | –
29 | Cc1cc([C@@H](C)Nc2ccccc2C(=O)O)c2nc(-c3cc(C)c4[nH]c(=O)[nH]c4c3)cc(=O)n2c1 (single isomer, unassigned) | – | C (C denotes ≤5-fold) | – | > 2
30 | Cc1cc(C(C)Nc2ccccc2C(=O)O)c2nc(-c3cccc(C(F)F)c3)c(C)c(=O)n2c1 (stereo not shown) | 0.1 to 0.5 | A (A denotes >20-fold) | – | –
31 | Cc1cc([C@H](C)Nc2ccccc2C(=O)O)c2nc(-c3ccc4c(n3)c(C)nn4C)cc(=O)n2c1 | 0.5 to 2 | – | – | –
32 | Cc1cc([C@@H](C)Nc2ccccc2C(=O)O)c2nc(-c3cc(C)c4oc(=O)[nH]c4c3)cc(=O)n2c1 | – | A (A denotes >20-fold) | – | < 0.1
33 | Cc1cc([C@@H](C)Nc2ccccc2C(=O)O)c2nc(-c3ccc4c(n3)c(C)nn4C)c(C)c(=O)n2c1 | 0.1 to 0.5 | – | A (A denotes >20-fold) | –
34 | Cc1cc([C@H](C)Nc2ccccc2C(=O)O)c2nc(-c3ccc(Cl)cc3)c(C)c(=O)n2c1 | 0.5 to 2 | – | – | –
35 | Cc1cc([C@@H](C)Nc2ccccc2C(=O)O)c2nc(-c3ccc(C(F)F)nc3)c(C)c(=O)n2c1 | < 0.1 | A (A denotes >20-fold) | – | –
36 | Cc1cc(C(C)Nc2cc(C(=O)O)c3[nH]ncc3c2)c2nc(N3CCOCC3)cc(=O)n2c1 (stereo not shown) | > 2 | – | C (C denotes ≤5-fold) | –
37 | Cc1cc([C@H](C)Nc2ccccc2C(=O)O)c2nc(N3CCN(C)CC3)cc(=O)n2c1 | – | C (C denotes ≤5-fold) | – | > 2
38 | Cc1cc([C@@H](C)Nc2ccccc2C(=O)O)c2nc(N3CC4(CCOC4)C3)cc(=O)n2c1 | – | C (C denotes ≤5-fold) | – | > 2
39 | Cc1cc([C@@H](C)Nc2ccccc2S(N)(=O)=O)c2nc(N3Cc4ccccc4[C@@H]3C)c(C)c(=O)n2c1 | 0.1 to 0.5 | A (A denotes >20-fold) | – | –
40 | Cc1cc([C@H](C)Nc2cccc3c2C(=O)NS3(=O)=O)c2nc(N3Cc4ccccc4C3)cc(=O)n2c1 | > 2 | C (C denotes ≤5-fold) | – | –
41 | Cc1cc([C@@H](C)Nc2ccccc2C(=O)O)c2nc(-c3cc(C(N)=O)c4[nH]ccc4c3)cc(=O)n2c1 | – | A (A denotes >20-fold) | – | 0.1 to 0.5
42 | Cc1cc(C(C)Nc2ccccc2S(N)(=O)=O)c2nc(-c3ccc4c(c3)c(C)cn4C3CC3)c(C)c(=O)n2c1 (stereo not shown) | > 2 | – | C (C denotes ≤5-fold) | –
43 | Cc1cc([C@@H](C)Nc2ccccc2S(N)(=O)=O)c2nc(-c3cnc4c(c3)c(C)cn4C)c(C)c(=O)n2c1 | 0.1 to 0.5 | A (A denotes >20-fold) | – | –
44 | Cc1cc([C@H](C)Nc2ccccc2C(=O)O)c2nc(-c3ccc4c(c3)c(C)c(C)n4C)cc(=O)n2c1 | > 2 | – | C (C denotes ≤5-fold) | –
45 | Cc1cc([C@H](C)Nc2ccncc2C(=O)O)c2nc(N3CCOCC3)cc(=O)n2c1 (single isomer, unassigned) | – | C (C denotes ≤5-fold) | – | > 2
46 | Cc1cc([C@H](C)Nc2ccccc2C(=O)O)c2nc(-c3ccc(Cl)cc3F)c(C)c(=O)n2c1 | > 2 | – | C (C denotes ≤5-fold) | –

Read-outs that look alike come from different tables or passages of the source.
